Tested on: choline acetyl transferase activity
Assay: Choline acetyl transferase activity in brain extracts of AF64A-treated rats
Format: in vivo, rat
Conditions: AF64A-treated vs sham-treated controls, three animals per group

Question: For ethylcholine aziridium, which “Reduction in choline acetyl transferase activity” value is on record?
Answer: The value was 11+2.6%.

From patent US7427598B2, “Post-natal administration of activity-dependent neurotrophic factor-derived polypeptides for enhancing learning and memory” (The United States of Americas as represented by the …, priority 2001, dated 2008)
